# Ab-14 light chain CDR variants: yeast mating affinities

Reference: Li et al. 2023, doi:10.1038/s41467-023-39022-2. File: FLAb, binding data.

Binding partner: SARS-CoV-2 spike HR2 peptide, sequence PDVDLGDISGINAS.

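Phage display of a naive human antibody library on the peptide gave the parent. These sequences belong to a second round, designed from the earlier measurements on random variants of the parent. Group labels follow the data file (Ctrl: baseline library sampled from a position-specific scoring matrix, with some repeated check sequences; Rand: our label for a block that the file lists under HC and that is probably the random mutants of the ten best first-round binders; En: ensemble of fine-tuned language models; GP: Gaussian process model; HC: hill climbing; Gen: genetic algorithm; Gibbs: Gibbs sampling; a sequence that several methods proposed may carry one label only). The scFvs were displayed on barcoded MATa yeast, the peptide on MATalpha yeast. Binding brings cells together so that they mate, and sequencing counts the barcode pairs among the diploids. Read counts were normalised to the haploid input and turned into Kd by a linear fit to BCL2-family pairs of known affinity, for each replicate. Each pool was mated in six replicate cultures.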

The variants keep the heavy chain, the linker and the frameworks of Ab-14 (scFv order VH, the linker GGGGSGGGGSGGGGS, VL).
VH: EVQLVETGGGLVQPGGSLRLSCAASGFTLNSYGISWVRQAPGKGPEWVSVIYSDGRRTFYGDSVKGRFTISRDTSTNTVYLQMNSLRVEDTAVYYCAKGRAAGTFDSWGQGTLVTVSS
VL: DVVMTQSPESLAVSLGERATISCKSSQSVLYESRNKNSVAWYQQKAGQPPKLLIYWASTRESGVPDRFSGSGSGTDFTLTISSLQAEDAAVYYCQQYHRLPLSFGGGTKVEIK

Variants are written as CDR1, CDR2 and CDR3 of the light chain (limits as in the source). Parent: KSSQSVLYESRNKNSVA, WASTRES, QQYHRLPLS.
This list holds designs with more than six substitutions.
Each Kd is an estimate from the mating assay, the geometric mean of the replicates in which the pair was seen; lower is stronger.
Where no diploid with the target was found in any replicate, the entry reads "nd": below detection, most likely a poor binder, though not proof of it.
Entries are sorted by rising average, undetected variants last.
The range of this assay differs from that of the first round, and the authors advise against merging the two.
As a blank, each scFv also met three strains without target: over all light chain designs, 4% of these pairings were detected, typically at 430 nM and seldom below 38 nM.
The authors' rule: three or more of the six replicates give a measured affinity, fewer mean a poor binder.

* TLGDVTRMESNKKNSIA | DMSNRES | QQYHRLPLS [En_HC] -> 210 pM (6 of 6 replicates)
* KLSGSKGYESRNPNSVA | NASTREL | QQYHRLPLS [GP_Gibbs] -> 240 pM (6 of 6 replicates)
* KLHQSDGYESRNKNSVA | NASTRSH | QQYHRLPLS [GP_Gibbs] -> 760 pM (6 of 6 replicates)
* QLGDMVHTESRNKNSIA | DMRTRES | QQYYRLPLS [En_HC] -> 760 pM (6 of 6 replicates)
* KLDQSDQGESRNKNAVA | QASTREI | QQYHRLPLS [GP_Gibbs] -> 780 pM (6 of 6 replicates)
* KISMLYNYASVNKNSIA | EMTTRES | QHYHRLPLS [En_HC] -> 890 pM (6 of 6 replicates)
* HVKEDLNMGMKFQSSVA | SGAHREE | QQYYRLPLG [En_Gibbs] -> 910 pM (6 of 6 replicates)
* KLSQLGLYGQRNKMSVA | QASQRES | QQYHRLPLS [GP_Gibbs] -> 940 pM (6 of 6 replicates)
* KVSWLWPYWSRNWNSVA | NASTREQ | QQYHRLPLS [GP_Gibbs] -> 1.3 nM (6 of 6 replicates)
* TLTQSVLMESHNKNSIA | DLSTRGS | QQYHRLPLS [En_HC] -> 1.3 nM (6 of 6 replicates)
* SLVQEKSVGDKNMGNIA | AGNQLSV | QQYNRLPLS [En_Gibbs] -> 1.5 nM (6 of 6 replicates)
* SLMQVGGYESNNHNSIA | DLRTRLS | QQYHRLPLS [En_HC] -> 2.1 nM (6 of 6 replicates)
* RLTEHTSERAYADAAVA | DASTRND | QQYHRLPLE [En_Gibbs] -> 2.2 nM (6 of 6 replicates)
* NIEGVEFESAMHGNSVA | GVDLREA | QQYFRLPLH [En_Gibbs] -> 2.2 nM (6 of 6 replicates)
* KLSIMYQHTSRNKNNIA | ERSTREE | QQYHHLPLS [En_HC] -> 2.3 nM (6 of 6 replicates)
* KLEDSNRWHLRGTSAVA | QASTRAA | QQYQRLPLL [En_Gibbs] -> 2.7 nM (6 of 6 replicates)
* KLSTITGHMRMAKDNVA | EMVTREK | QQYNRLPLS [En_Gen] -> 3.0 nM (6 of 6 replicates)
* HISQMVMYGSCNKNNVA | QVSVREE | QQYHRLPLS [En_HC] -> 3.1 nM (6 of 6 replicates)
* TIAQSMLYLSNSKNSIA | QAETRED | QQYHRLPIS [En_HC] -> 3.2 nM (6 of 6 replicates)
* KLSQSTPYESRMKNSVA | NASLREQ | QQYHRLPLS [GP_Gibbs] -> 3.4 nM (6 of 6 replicates)
* MVNQHDEGFKGHKDNIA | NAATKEG | QHYGRLPLS [En_Gibbs] -> 4.4 nM (6 of 6 replicates)
* KMSQSVLQGGRNDNSVA | SASTRCS | QQYHRLPLS [GP_Gibbs] -> 5.0 nM (6 of 6 replicates)
* KLMQSVEQEERNKNSVA | HASLREV | QAYHRLPLS [GP_Gibbs] -> 5.5 nM (6 of 6 replicates)
* KLAMILSMWADTYHGVA | DANHKAS | QQYNRLPLS [En_Gibbs] -> 6.1 nM (6 of 6 replicates)
* KISQSILFMSGNLNAIA | QMEMREE | QQYHRLPLS [En_HC] -> 6.5 nM (6 of 6 replicates)
* KLQNFSQEHNGMWNSIA | DMTMKHT | QHYNRLPLV [En_Gibbs] -> 7.1 nM (6 of 6 replicates)
* TISNSFMMENQFKNSVA | QAQTRES | QCYDRLPLS [En_HC] -> 8.3 nM (6 of 6 replicates)
* KLRQSTLIESFNKNNVA | EMSTRES | QSYDRLPLS [En_HC] -> 9.9 nM (6 of 6 replicates)
* KSSQSVIYENRNHNSVA | GASHCEI | QQYHRLPLS [Ctrl] -> 13 nM (2 of 6 replicates)
* MISQLYNMGQFAINSVA | QANIRNA | QQYDRLPLA [En_Gen] -> 13 nM (6 of 6 replicates)
* IISGSSLMESRNKNSVA | NAETREY | QHYDRLPLS [En_HC] -> 15 nM (6 of 6 replicates)
* HMSAVTMLGSRHRNSVA | QMTTREN | QQYDRLPLS [En_Gen] -> 16 nM (6 of 6 replicates)
* FLAYALDQDGLIKNNIA | QTNLLEN | QQYERLPLA [En_Gibbs] -> 16 nM (6 of 6 replicates)
* SISMSMAFLSRNKNSVA | ENSTRES | QQYDRLPLV [En_HC] -> 19 nM (6 of 6 replicates)
* IVSQLMLWGHLAKNSIA | EAVTRYN | QQYDRLPLF [En_Gen] -> 20 nM (3 of 6 replicates)
* IISQSMLFESATHNSIA | QTSTREE | QQYHHLPLS [En_HC] -> 25 nM (6 of 6 replicates)
* RIEILGEEVTQHYSNVA | EQHVTDM | QQYFRLPLS [En_Gibbs] -> 27 nM (4 of 6 replicates)
* MLSQMWAIGMKAKNSVA | QASMRFN | QQYDRLPLV [En_Gen] -> 27 nM (5 of 6 replicates)
* TLMEVGGYQLNSHNSIA | DLRTREN | QQYHRLPLS [En_HC] -> 76 nM (1 of 6 replicates)
* QLLMATMYGTYNRNSVA | HAETRED | QSYHRLPLS [En_HC] -> 130 nM (5 of 6 replicates)
* KVSEFMRGLMQRKDSIA | DNETRNS | QQYDRLPLS [En_Gen] -> 130 nM (6 of 6 replicates)
* KVSEFMKGLMGRKDSIA | DNTTRNS | QQYDRLPLS [En_Gen] -> 140 nM (4 of 6 replicates)
* KLMMSLQGEPKDWYAIA | EGESATT | QQYARLPLM [En_Gibbs] -> 170 nM (1 of 6 replicates)
* TISQMTSLFSQSINNVA | EVSCREP | QQYDRLPLA [En_Gen] -> 220 nM (4 of 6 replicates)
* MFSQMLAIGHKAKNSVA | QASMRFN | QQYDRLPLI [En_Gen] -> 290 nM (2 of 6 replicates)
* KLRQSVGYESRNKSRVA | DNSTRES | QQYDRLPLS [En_HC] -> 360 nM (6 of 6 replicates)
* KLLQTVMNGRRNRNNVA | HMTMRED | QQYFRLPLS [En_HC] -> 510 nM (1 of 6 replicates)
* QIAMEMYHDLNDAQNVA | DAMTEIP | QQYNRLPLS [En_Gibbs] -> nd (0 of 6 replicates)
* KSSQSVLYERWNKNSVA | QHSARES | FQYHYLPLS [Ctrl] -> nd (0 of 6 replicates)
* ALRQSTLAESRNNNSVA | GASTRES | QVYHRLYLS [Rand] -> nd (0 of 6 replicates)

The 5 strongest on average among those seen in every replicate, once more:

CDR-L1,CDR-L2,CDR-L3,group,apparent Kd,replicates with signal
TLGDVTRMESNKKNSIA,DMSNRES,QQYHRLPLS,En_HC,210 pM,6 of 6
KLSGSKGYESRNPNSVA,NASTREL,QQYHRLPLS,GP_Gibbs,240 pM,6 of 6
KLHQSDGYESRNKNSVA,NASTRSH,QQYHRLPLS,GP_Gibbs,760 pM,6 of 6
QLGDMVHTESRNKNSIA,DMRTRES,QQYYRLPLS,En_HC,760 pM,6 of 6
KLDQSDQGESRNKNAVA,QASTREI,QQYHRLPLS,GP_Gibbs,780 pM,6 of 6